Nrf2 block = inhibitors of Nrf2 signaling | 360,000 tested, 2.1% active | A549 ARE-Fluc reporter, luciferase luminescence, 18-24 h | Potency, µM (top dose mostly 46 µM), for the others: at the top dose activity change, negative = inhibition, most hits filed as inhibitors; also: potency is read from the fitted curve at half-maximal effect; % is scaled to controls: 0 for no effect and ±100 for the full control effect; nearly all actives have a fitted effect of over 60% in size
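Cells were seeded and rested 2 h, then exposed to compounds for 18-24 h. CellTiter-Fluor was read first as a viability measure. BugLite was added 15 min before the final luminescent read of ARE-luciferase activity in A549 cells.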
Nrf2 ARE act = activates Nrf2 signaling. Potency, µM (titrated, usually from 46.1 µM), inactives show top-dose activation, hits mostly activators. 410,000 tested, 0.31% active. AID 624171. AREc32 ARE-luciferase reporter (MCF7-derived line), luminescence, 24 h; also: potency is read from the fitted curve at half-maximal effect; % of control where 0% means no effect; nearly all actives have a fitted effect of over 65% in size
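Steps: seed AREc32_Fluc cells (1000/well, 5% FBS OPTI-MEM); incubate overnight at 37 deg C; add 23 nL compound; incubate 24 hr; add Steady-Glo; hold 30 min RT; read luminescence.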
miR-21 reporter = miR-21 reporter, rising signal; HeLa miR-21 FLuc reporter, luciferase, 48 h; Potency, µM (highest dose often 38.3 µM), for the others: top-dose reporter change, positive = more light; 340,000 tested, under 10 active; AID 2288; active = well fitted rising curve with a large enough effect; inconclusive = small, poorly fitted or top-dose-only effect; inactive = no such curve, though single readings can be large or run the other way;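 further: % of control where 0% means no effect; miR-21 action dims this reporter so a rising signal means less miR-21 action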
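Using DMEM plus 10% FBS, HeLa miR-21-FLuc cells are incubated with test compounds (final up to about 40uM) for 48 hours; firefly luciferase signal is then imaged following reagent-mediated lysis.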
A549 tox = counter-screen for Nrf2 inhibitors: cytotoxicity in A549 cells | 390,000 tested, 0.16% active | Potency, µM (doses to about 46 µM), inactives show at the top dose activity change, negative = cytotoxicity, hits mostly inhibitors | AID 504648 | A549 ARE-Fluc cells, CellTiter-Fluor viability, 18-24 h; also: potency is read from the fitted curve at half-maximal effect; % is scaled to controls: 0 for no effect and ±100 for the full control effect
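Cytotoxicity counterscreen: CellTiter-Fluor fluorescence was measured in A549 ARE_Fluc cells after 18-24 h of compound exposure in a concentration series. The subsequent BugLite luminescent read reports ARE-luciferase activity.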
Mito fusion yeast = blocks mitochondrial division or promotes mitochondrial fusion; S. cerevisiae fusion-defective mutant growth rescue, CellTiterGlo 48 h; Potency, µM (titrated, usually from 46.1 µM), inactives show top-dose growth rescue (activation), hits mostly activators; 320,000 tested, 0.23% active; AID 485298; also: potency is read from the fitted curve at half-maximal effect; % of control where 0% means no effect; nearly all actives have a fitted effect of over 45% in size
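Luminescent cell viability in 1536-well qHTS format served as the measure of rescued growth in ts fusion-mutant S. cerevisiae cultured on non-fermentable YPEG for 48 hours at 37C.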
Glioma ERSR ind = inducers of ER stress response in human glioma cells; 420,000 tested, 0.02% active; AID 602332; U87-MG GRP78 promoter luciferase reporter, 16 h; Potency, µM, for inactives: at the highest dose activation, usual class: activators; also: potency is read from the fitted curve at half-maximal effect; series mostly up to about 76 µM; % of control where 0% means no effect; nearly all actives have a fitted effect of over 35% in size
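Stably transfected U87-MG human glioma cells carrying a GRP78-based luminescent sensor were seeded at 1000 cells/well, pin-dosed with compounds and incubated 16 h. Luciferase reagent was then added, and end-point luminescence was read after 10 min at room temperature.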
* = called active by the depositor; ? = inconclusive; . = not tested or not shown. The list is not random: actives were taken first. Their share in the collection is about 2.3%. Calls follow the shape of the dose curve; as a rule, active = well fitted curve in the direction sought with a large enough effect; inconclusive = small, poorly fitted or top-dose-only effect, or another doubt; inactive = no such curve, though single readings can be large; an effect the other way counts as inactive or inconclusive.

Abbreviations – A = Nrf2 block; B = Nrf2 ARE act; C = miR-21 reporter; D = A549 tox; E = Mito fusion yeast; F = Glioma ERSR ind
Cc1ccc(CN2CCN(/N=C/c3ccc(C(F)(F)F)cc3)CC2)c(C)c1
  A: -14.1% | B: 0.8% | C: 4.1% | D: 0.0% | E: 11.1% | F: -3.7%
O=C(Nc1cccs1)Nc1cccnc1Cl
  A: -0.1% | B: 11.2µM* | C: -17.7% | D: 2.0% | E: ? | F: 5.1%
O=C(Cn1c(=O)n(Cc2nc(-c3ccccc3)no2)c(=O)c2ccccc21)Nc1cccc(C(F)(F)F)c1
  A: 16.4µM* | B: -1.2% | C: ? | D: -16.3% | E: . | F: -5.5%
O=C(Cn1c(=O)n(Cc2nc(-c3ccccc3)no2)c(=O)c2ccccc21)Nc1cccc(Cl)c1
  A: -13.7% | B: -0.6% | C: 17.1% | D: -11.4% | E: . | F: -2.4%
NC(=O)c1ccc(C(=O)N/N=C/c2cccc(Oc3ccccc3)c2)cc1
  A: 21.3% | B: 1.3% | C: -6.7% | D: -0.6% | E: 0.2% | F: 2.9%
COc1ccc(N2CCN(C(=O)CCn3cnc4onc(-c5ccc(F)cc5)c4c3=O)CC2)cc1
  A: ? | B: 0.2% | C: 0.3% | D: -4.0% | E: . | F: -5.6%
COc1cccc(N2CCN(C(=O)Cn3cnc4onc(-c5ccc(F)cc5)c4c3=O)CC2)c1
  A: 16.4µM* | B: 2.0% | C: -2.6% | D: 3.4% | E: . | F: -2.7%
COC(=O)c1ccc2c(c1)C(C)(C)C(/C=C/c1ccc(OC)c(OC)c1OC)=[N+]2C
  A: 16.4µM* | B: -3.3% | C: ? | D: ? | E: -5.8% | F: -18.3%
CCCCOc1c(Cl)cc(C(=O)N2CCN(CC(=O)N3CCCC3)CC2)cc1OCC
  A: ? | B: 3.5% | C: . | D: -12.6% | E: -5.4% | F: -1.6%
NC(=O)Cn1c(=O)n(-c2ccc(F)c(Cl)c2)c(=O)c2sc3ccccc3c21
  A: 0.9% | B: 2.4% | C: -27.3% | D: -21.3% | E: . | F: -0.7%
Cc1ccn2c(NC3CCCC3)c(-c3ccsc3)nc2c1
  A: -7.9% | B: 2.8% | C: -8.3% | D: -7.4% | E: -1.3% | F: 0.1%
Cc1ccc(CN(Cc2cc3cc4c(cc3[nH]c2=O)OCCO4)Cc2nnnn2Cc2ccco2)cc1
  A: 25.9µM* | B: 4.7% | C: 0.4% | D: ? | E: 20.3% | F: -0.2%
Cc1ccc2cc(CN(Cc3ccc4c(c3)OCO4)Cc3nnnn3Cc3ccco3)c(=O)[nH]c2c1
  A: ? | B: 4.0% | C: -9.5% | D: -18.7% | E: 9.4% | F: -4.5%
CCN(CC)CCC(c1ccc(OC)cc1)c1c(OC)cc(OC)c2c(C)cc(=O)oc12 (stereo not drawn)
  A: -4.8% | B: . | C: . | D: 11.6µM* | E: . | F: -3.7%
CCN(CC)CCC(c1ccc2c(c1)OCO2)c1c(OC)cc(OC)c2c(C)cc(=O)oc12 (stereo not drawn)
  A: 8.5% | B: . | C: . | D: -26.1% | E: . | F: -4.5%

Next part (3 carried over from the part before).
Abbreviations – A = Nrf2 block; B = Nrf2 ARE act; C = miR-21 reporter; D = A549 tox; E = Mito fusion yeast; F = Glioma ERSR ind
Cc1ccc2cc(CN(Cc3ccc4c(c3)OCO4)Cc3nnnn3Cc3ccco3)c(=O)[nH]c2c1
  A: ? | B: 4.0% | C: -9.5% | D: -18.7% | E: 9.4% | F: -4.5%
CCN(CC)CCC(c1ccc(OC)cc1)c1c(OC)cc(OC)c2c(C)cc(=O)oc12 (stereo not drawn)
  A: -4.8% | B: . | C: . | D: 11.6µM* | E: . | F: -3.7%
CCN(CC)CCC(c1ccc2c(c1)OCO2)c1c(OC)cc(OC)c2c(C)cc(=O)oc12 (stereo not drawn)
  A: 8.5% | B: . | C: . | D: -26.1% | E: . | F: -4.5%
O=S(=O)(c1ccc(Br)cc1)N1CCOCC1
  A: 26.6% | B: . | C: . | D: 0.5% | E: . | F: -4.4%
COc1cc(-c2ccc3c(=O)c4ccccc4n(C)c3c2)cc(OC)c1OC
  A: 13µM* | B: 0.8% | C: -4.4% | D: ? | E: -1.2% | F: 4.5%
O=C(Nc1cccc(-c2nc3ccccc3o2)c1)c1ccc(N2C(=O)C3C4C=CC(C4)C3C2=O)cc1 (stereo not drawn)
  A: 9.2µM* | B: -0.7% | C: 8.4% | D: ? | E: 0.9% | F: -6.1%
O=C1C2C3C=CC(C3)C2C(=O)N1c1cccc(-c2nc3ccccc3o2)c1 (stereo not drawn)
  A: 16.1% | B: -0.3% | C: -3.8% | D: -3.4% | E: -5.4% | F: -0.8%
Cc1cccc(CC(=O)NC2CCS(=O)(=O)C2)c1 (stereo not drawn)
  A: 12.4% | B: -0.8% | C: . | D: -4.7% | E: -1.9% | F: 1.0%
O=C(NC1CCCC1)c1ccc(Cl)s1
  A: 1.6% | B: 0.1% | C: -10.2% | D: 0.5% | E: -1.6% | F: 12.0%
O=C(NC1CCCCCC1)c1ccc([N+](=O)[O-])s1
  A: 2.06µM* | B: 2.9% | C: . | D: -4.5% | E: 6.2% | F: -10.0%
COc1ccc(-c2cc3nc(-c4ccccc4)cc(N4CCCC(O)C4)n3n2)cc1 (stereo not drawn)
  A: 13µM* | B: -4.0% | C: 19.3% | D: ? | E: ? | F: -3.1%
COc1ccc(-c2cc3nc(-c4ccccc4)cc(N4CCC(O)CC4)n3n2)cc1
  A: ? | B: -0.8% | C: 18.9% | D: -20.8% | E: ? | F: -7.5%
COc1cc(C=CC(=O)c2ccccc2)cc(OC)c1OC
  A: . | B: ? | C: . | D: . | E: . | F: -6.7%
COc1cc(C=CC(=O)c2cc(OC)c(OC)c(OC)c2)cc(OC)c1OC
  A: 23.1µM* | B: -3.3% | C: . | D: ? | E: . | F: -12.7%
